# Screening data: PubChem BioAssay, National Center for Advancing Translational Sciences (NCATS)
# Hits are enriched below; roughly 3.7% of the tested compounds scored in any of these assays.
# Nrf2 block = Nrf2 pathway inhibition | A549 ARE-Fluc reporter, luciferase luminescence, 18-24 h | Potency, µM (series often up to 46 µM), without a hit: at the top dose activity change, negative = inhibition, actives largely listed as inhibitors | 360,000 tested, 2.1% active | AID 504444; further: potency means the concentration at half of the fitted maximal effect; on the % scale 0 is the no-effect control and ±100 the full control effect; nearly all actives have a fitted effect of over 60% in size
#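 Two sequential reads on A549 ARE_Fluc cells exposed to compound for 18-24 h: a CellTiter-Fluor fluorescence read for viability, then a luciferase luminescence read for Nrf2/ARE activity.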
# ClpP mod = qHTS Assay for Activators of ClpP; Potency, µM (series often up to 57.5 µM), inactives show at the highest dose activity change, negative = active; purified B. subtilis ClpP, FRET peptide cleavage, 20 min; 340,000 tested, 1.9% active; ATP-dependent Clp protease proteolytic subunit (Bacillus subtilis (strain 168)), P80244; active means well fitted falling curve with a large enough effect; inconclusive means small, poorly fitted or top-dose-only effect; inactive means no such curve, though single readings can be large or run the other way; further: potency means the concentration at half of the fitted maximal effect; the source files actives as falling curves though it sought activators and does not explain the sign; nearly all actives have a fitted effect of over 65% in size
#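 Purified B. subtilis ClpP, 10 microg/mL final in Tris/HCl pH8 with KCl, BSA, glycerol and Tween-20, cleaved an Abz/nitrotyrosine-quenched decapeptide. Fluorescence (ex 320, em 430) was read at 0 and 20 min at room temperature. Delta was normalized to 5.8 microM ADEP and DMSO/no-enzyme controls.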
# miR-21 reporter = raises the signal of a miR-21 reporter | HeLa miR-21 FLuc reporter, luciferase, 48 h | Potency, µM (highest dose often 38.3 µM), inactives show at the highest dose reporter change, positive = more light | 340,000 tested, under 10 active | AID 2288; active = well fitted rising curve with a large enough effect; inconclusive = small, poorly fitted or top-dose-only effect; inactive = no such curve, though single readings can be large or run the other way;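 note: % of control where 0% means no effect; miR-21 action dims this reporter so a rising signal means less miR-21 action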
#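 Luminescence from a firefly luciferase reporter carrying a miR-21 binding site downstream, stably expressed under a CMV promoter in HeLa cells that make miR-21 endogenously, reports miRNA modulation after 48 h compound exposure up to approximately 40uM final.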
# p53 reactivation = mutant p53 re-activation in reporter cells; H1299 p53-A138V BP100-luciferase reporter, luminescence, 24 h; Potency, µM (titrated, usually from 92.2 µM), inactives show at the top dose activity change, positive = activation, usual class: activators; 320,000 tested, 0.063% active; further: potency means the concentration at half of the fitted maximal effect; % of control where 0% means no effect; nearly all actives have a fitted effect of over 45% in size
#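 H1299 (p53-null), stable ts p53-A138V + BP100-Luc; 1000 cells/well, Opti-MEM/10% FBS; cpd 4 pt, 1:5; 24 h, 37 deg C, 5% CO2; detection reagent 10 min RT; luminescence.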
# A549 viability = counter-screen for Nrf2 inhibitors: cytotoxicity in A549 cells | A549 ARE-Fluc cells, CellTiter-Fluor viability, 18-24 h | Potency, µM (doses to about 46 µM), for the others: at the top dose activity change, negative = cytotoxicity, usual class: inhibitors | 390,000 tested, 0.16% active | AID 504648; further: potency means the concentration at half of the fitted maximal effect; on the % scale 0 is the no-effect control and ±100 the full control effect
#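 Cytotoxicity counterscreen: CellTiter-Fluor fluorescence was measured in A549 ARE_Fluc cells after 18-24 h of compound exposure in a concentration series. The subsequent BugLite luminescent read reports ARE-luciferase activity.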
# Nrf2 activator = activates Nrf2 signaling | AREc32 ARE-luciferase reporter (MCF7-derived line), luminescence, 24 h | Potency, µM (series often up to 46.1 µM), inactives show at the highest dose activation, most hits filed as activators | 410,000 tested, 0.31% active | AID 624171; further: potency means the concentration at half of the fitted maximal effect; % of control where 0% means no effect; nearly all actives have a fitted effect of over 65% in size
#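 Reporter line AREc32 (ARE-Fluc), seeded overnight in OPTI-MEM with 5% FBS; compound pin-transferred, 24 hr at 37 deg C, 5% CO2; luminescent read-out.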
# Active calls of the source: *; ? = inconclusive; / = no result given. Unless noted, the call rests on the fitted dose curve; in most records, active means well fitted curve in the direction sought with a large enough effect; inconclusive means small, poorly fitted or top-dose-only effect, or another doubt; inactive means no such curve, though single readings can be large; an effect the other way counts as inactive or inconclusive.
1	COC(=O)CC1(C(=O)OC)Oc2ccc(Br)cc2C(=O)N1c1ccc(Br)cc1Cl (stereo not given)
2	COc1cc(OC)c(C(=O)NCc2nc(-c3ccccc3)no2)cc1OC
3	COc1ccc(S(=O)(=O)c2c(N)n(Cc3ccco3)c3nc4ccccc4nc23)cc1
4	COc1ccc(Cn2c(C)nc3c(c2=O)c2nc4ccccc4nc2n3Cc2ccco2)cc1
5	Cc1ccc(S(=O)(=O)N(CC(=O)NC2CC2)c2ccc(C)c(Cl)c2)cc1
6	Cc1cccc(N(CC(=O)NC2CC2)S(=O)(=O)c2ccc(Cl)cc2)c1

entry no.,1,2,3,4,5,6
ClpP mod,0%,-7%,16µM*,?,16µM*,1%
A549 viability,-24%,-1%,-11%,-17%,2%,1%
Nrf2 block,16µM*,-16%,-14%,18µM*,-9%,0%
Nrf2 activator,0%,2%,17%,3%,-1%,0%
miR-21 reporter,28%,-10%,9%,/,2%,-1%
p53 reactivation,-2%,/,2%,/,-10%,1%

7	O=C(CCl)Nc1cccc(S(=O)(=O)NC2=NCCCCC2)c1
8	O=C(Nc1ccc(Br)cc1)c1cccc(S(=O)(=O)Nc2ccccn2)c1
9	O=C(Cc1csc(-c2cccc(Cl)c2)n1)Nc1cccc(S(=O)(=O)NC2=NCCC2)c1
10	CCCCCC(=O)Nc1cccc(S(=O)(=O)NC2=NCCC2)c1
11	O=C(Nc1ccccc1)c1cccc(S(=O)(=O)Nc2ccccn2)c1
12	O=C(CCl)Nc1ccc(S(=O)(=O)NC2=NCCCCC2)cc1

entry no.,7,8,9,10,11,12
ClpP mod,-2%,?,-4%,35µM*,-16%,2%
A549 viability,-1%,?,-4%,2%,3%,?
Nrf2 block,21µM*,13µM*,23µM*,5%,-8%,?
Nrf2 activator,?,1%,0%,0%,0%,21%
miR-21 reporter,/,-1%,/,/,2%,/
p53 reactivation,-22%,-14%,-6%,-2%,17%,-32%

13	CC(=O)Nc1ccc(S(=O)(=O)N2CCCN(S(=O)(=O)c3ccc4c(c3)OCCO4)CC2)cc1
14	Cc1ccc(OCC(=O)Nc2cccc(S(=O)(=O)NC3=NCCCCC3)c2)cc1C
15	Cc1cc(OCC(=O)Nc2cccc(S(=O)(=O)NC3=NCCCCC3)c2)ccc1Cl
16	O=C(Nc1cccc(S(=O)(=O)NC2=NCCC2)c1)c1ccc(F)cc1
17	O=C(Nc1ccncc1)c1ccc(NS(=O)(=O)c2cccc(F)c2)cc1
18	O=C(Nc1cccc(S(=O)(=O)NC2=NCCC2)c1)c1ccc(C(F)(F)F)cc1

entry no.,13,14,15,16,17,18
ClpP mod,/,14µM*,-1%,1%,32µM*,0%
A549 viability,-10%,-3%,-2%,1%,1%,-2%
Nrf2 block,?,-32%,?,?,-32%,18µM*
Nrf2 activator,/,-1%,0%,-1%,0%,3%
miR-21 reporter,/,0%,-4%,/,21%,/
p53 reactivation,/,-11%,9%,3%,-2%,1%

# Down the list, as entered above:
# Compounds 14 to 18 in Nrf2 activator read -1%, 0%, -1%, 0%, 3%
# Compounds 14 to 18 in p53 reactivation read -11%, 9%, 3%, -2%, 1%

# Part of the list above, limited to p53 reactivation, miR-21 reporter and ClpP mod:
cpd	Molecule	p53 reactivation	miR-21 reporter	ClpP mod
16	O=C(Nc1cccc(S(=O)(=O)NC2=NCCC2)c1)c1ccc(F)cc1	3%	/	1%
17	O=C(Nc1ccncc1)c1ccc(NS(=O)(=O)c2cccc(F)c2)cc1	-2%	21%	32µM*

# Next part.
19	CCCSc1nnc2n(-c3cccc(C)c3)c(=O)c3c4c(sc3n12)CCCC4
20	COc1cc(NC(=O)COc2cccc3c2OC(C)(C)C3)cc(OC)c1OC
21	CC1(C)Cc2cccc(OCC(=O)N3CCN(c4cccc(C(F)(F)F)c4)CC3)c2O1
22	CC1(C)Cc2cccc(OCC(=O)N3CCN(c4cccc(Cl)c4)CC3)c2O1
23	Clc1cccc(OCc2nc(-c3ccncc3)n[nH]2)c1
24	CCCCCc1ccc(-c2nnc(N)s2)cc1
25	CCCCCCc1ccc(-c2ncc(N)cn2)cc1
26	COc1ccc(Cl)c2sc(N(CCN(C)C)C(=O)c3ccc4c(c3)OCCO4)nc12
27	CCOC(=O)c1c(NC(=O)COC(=O)CCOc2ccccc2C)sc(C(=O)NC)c1C

entry no.,19,20,21,22,23,24,25,26,27
ClpP mod,3%,1%,0%,25µM*,/,/,32µM*,/,20µM*
A549 viability,-19%,-13%,1%,-11%,-1%,1%,10%,3%,6%
Nrf2 block,-18%,10µM*,-25%,-19%,21µM*,?,/,-12%,16%
Nrf2 activator,-1%,0%,-1%,0%,0%,-1%,3%,0%,-1%
miR-21 reporter,-14%,/,/,/,2%,-66%,-42%,/,/
p53 reactivation,/,-5%,1%,-6%,-6%,3%,37%,-2%,-12%
